Measurements as given in US20250302795A1, “SMALL MOLECULE COMPOUNDS WITH NEGATIVE REGULATORY EFFECTS ON Nrf2 SIGNALING PATHWAYS AND THEIR POTENTIAL APPLICATIONS” (Beijing Hebabiz Biotechnology Co., Inc., priority 2022, published 2025).

Assays:
[1] = system: rats with nonalcoholic steatohepatitis induced by a high-fat diet and CCl4; assay: Serum biochemical indices, high-fat diet and CCl4 model; format: in vivo, rat; conditions: end of tenth week of administration, positive control group
Experimental: (§1) Starting from the seventh week, they received subcutaneous injections of a 30% CCl4 olive oil solution at a dosage of 0.2 ml/100 g behind their back twice per week for a total of four times. Once the model was successfully replicated, the corresponding drugs were administered orally (10 ml/kg) in each treatment group, and both the normal control group and the model group received equal volumes of a 0.5% CMC-Na solution once daily for ten consecutive weeks. Throughout the experimental period, the rats were provided with ad libitum access to food and water, while the animal chamber was maintained under controlled conditions of quietness, natural lighting, a temperature of 25±0.5° C., and a humidity level of 55±5%. The rats' body weights were measured once per week and recorded.
(§2) At the end of the tenth week of administration, all rats underwent a 16-hour fasting period following their final administration and were intraperitoneally injected with a 20% ulinastatin solution (10 ml/kg) for anesthesia. Subsequently, blood samples were collected from the abdominal aorta and allowed to stand for one hour, and then centrifuged at 4° C. for fifteen minutes at a speed of 3000 r/min. Finally, the upper serum was stored at −80° C. Following the instructions provided with the biochemical index detection kit, levels of HDL-C, LDL-C, NEFA, AST, ALT, UA, TC, TG, PCIII, IV-C LN and HA in rat serum were determined.
According to the kit instructions, the concentration of fasting plasma glucose (FPG) in serum was determined using colorimetry, while the concentration of fasting insulin (FINS) in serum was measured through radioimmunoassay.

[2] = system: rats with nonalcoholic steatohepatitis induced by a high-fat diet and CCl4; assay: Four indices of serum hepatic fibrosis, high-fat diet and CCl4 model; format: in vivo, rat; conditions: positive control group
Experimental: as §1
as §2, with “Finally, the upper serum was stored at −80° C.” left out

Compound: CC[C@H](C)C(=O)O[C@H]1C[C@@H](C)C=C2C=C[C@H](C)[C@H](CC[C@@H]3C[C@@H](O)CC(=O)O3)[C@H]21 [Lovastatin]
- TC [1]: 1.76 mmol/L
- TG [1]: 0.61 mmol/L
- UA [1]: 119 µmol/L
- HA [2]: 47.85 ± 19.06 µg/L
- LN [2]: 117.50 ± 43.83 µg/L
